Publication PMC9988221 (Journal of Clinical Psychopharmacology, 2023)
Like-named read-outs stand apart in the source and are kept apart here. Marks after values point to notes of the source that are not given here.

Type: in vivo, human
[1] = +BI 425809 25 mg at steady state
[2] = probe drug + steady-state BI 425809 25 mg vs probe drug only
[3] = probe drug alone (cocktail or digoxin alone)

| t1/2, arithmetic mean (SD) [1] | AUC0–tz, Adjusted gMean Ratio (90% CI) [2] | Cmax, Adjusted gMean Ratio (90% CI) [2] | t1/2, arithmetic mean (SD) [3] | SMILES | Cmax, arithmetic mean (SD) [1] | Cmax, arithmetic mean (SD) [3] | Cmax, gMean (Probe Drug Only, healthy males, plasma) [ng/mL] |
| --- | --- | --- | --- | --- | --- | --- | --- |
| 1.0 (0.6) h | 88.9 (81.0–97.6) % | 102.2 (93.6–111.7) % | 1.0 (0.7) h | COc1ccc2[nH]c([S+]([O-])Cc3ncc(C)c(OC)c3C)nc2c1 (stereo not drawn) [Omeprazole, omeprazole] | – | – | – |
| – | – | – | – | CC(=O)C[C@H](c1ccccc1)c1c(O)c2ccccc2oc1=O [R-warfarin] | 558.0 (166.0) ng/mL | 537.0 (121.0)* ng/mL | – |
| – | – | – | – | CC(=O)C[C@@H](c1ccccc1)c1c(O)c2ccccc2oc1=O [S-warfarin] | 572.0 (174.0) ng/mL | 547.0 (126.0)* ng/mL | 534.5 |
